Test system: Colon26 tumors
Conditions: mouse, in vivo, iv

## ^18F-fluoro-2-deoxyglucose [^18F-FDG]
  organ distribution (biodistribution): higher uptake in muscle and heart relative to tumor

Source: paper PMC3188669 (Journal of medicinal chemistry, 2011)
